In brackets after ≈: the same amount, converted by molar mass.
Tested on: Staphylococcus aureus isolates
Experiment: Minimum inhibitory concentration, macro broth dilution, Staphylococcus aureus isolates (Test 1)
Assay type: cell-based
Conditions: 24 h
Description: Compounds were tested against five isolates of Staphylococcus aureus. The bacteria used were isolated from patients at the Walter Reed Army Medical Center, Washington, D.C. […] Each compound was dissolved in Dimethyl Sulfoxide (DMSO) (12.8 mg/ml) and then diluted with Mueller-Hinton broth to obtain the desired dilutions. Tubes containing the hightest quantities of DMSO with no compound present were run as controls.

CC(=NNC(=S)N1CCCC1)c1ccc2ccccc2n1 [Compound 3I, Pyrrolidine-1-thiocarboxylic acid 2-[1-(2-quinolyl)ethylidene]hydrazide]
MIC (Staphylococcus aureus isolate II): 0.5 µg/mL (≈ 1.68 µM)
MIC (Staphylococcus aureus isolate III): 0.5 µg/mL (≈ 1.68 µM)

— patent publication US4440771A, “2-Acetyl quinoline thiosemicarbazones useful in treatment of gonorrhea, malaria or bacterial infections” (The United States of America as represented by the …, priority 1982, dated 1984)
